Molecular target: mTORC1 (Homo sapiens, UniProt P42345+P62942)
Test: Inhibition assay for mTORC1: phosphorylation of pS6K at Thr389, AlphaLISA SureFire in PC3 cells
Format: cell-based
[1] = treated 24 hours, phosphorylation of pS6K at Thr389, Rapamycin analogs substituted at C40
[2] = 24 hours treatment, pS6K Thr389, analogs substituted at C40 and C16 (C16 diastereomer mixtures not isolated)

Compound | pIC50 mTORC1 [1] | pIC50 mTORC1 [2]
COC1CC2CCC(C)C(O)(O2)C(=O)C(=O)N2CCCCC2C(=O)OC(C(C)CC2CCC(OCCOCCOCCOCCO)C(OC)C2)CC(=O)C(C)C=C(C)C(O)C(OC)C(=O)C(C)CC(C)C=CC=CC=C1C (stereo not drawn) | A (PIC50 for mTORC1 of >9.5 as A) | 
COC1CC2CCC(C)C(O)(O2)C(=O)C(=O)N2CCCCC2C(=O)OC(C(C)CC2CCC(OC(=O)C(C)(CO)CO)C(OC)C2)CC(=O)C(C)C=C(C)C(O)C(OC)C(=O)C(C)CC(C)C=CC=CC=C1C (stereo not drawn) | A (PIC50 for mTORC1 of >9.5 as A) | 
COC1CC2CCC(C)C(O)(O2)C(=O)C(=O)N2CCCCC2C(=O)OC(C(C)CC2CCC(OCCCN3CCCC(O)C3)C(OC)C2)CC(=O)C(C)C=C(C)C(O)C(OC)C(=O)C(C)CC(C)C=CC=CC=C1C (stereo not drawn) | A (PIC50 for mTORC1 of >9.5 as A) | 
CO[C@@H]1C[C@H](C[C@@H](C)[C@@H]2CC(=O)[C@H](C)/C=C(\C)[C@@H](O)[C@@H](OC)C(=O)[C@H](C)C[C@H](C)/C=C/C=C/C=C(\C)C(OCCCO)C[C@@H]3CC[C@@H](C)[C@@](O)(O3)C(=O)C(=O)N3CCCC[C@H]3C(=O)O2)CC[C@H]1OCCCO (stereo partly drawn) |  | A (PIC50 for mTORC1 of >9.5 as A)
CO[C@@H]1C[C@H](C[C@@H](C)[C@@H]2CC(=O)[C@H](C)/C=C(\C)[C@@H](O)[C@@H](OC)C(=O)[C@H](C)C[C@H](C)/C=C/C=C/C=C(\C)C(OCCc3ccccc3)C[C@@H]3CC[C@@H](C)[C@@](O)(O3)C(=O)C(=O)N3CCCC[C@H]3C(=O)O2)CC[C@H]1OC(=O)NCCOCCOCCOCCOCCO (stereo partly drawn) |  | A (PIC50 for mTORC1 of >9.5 as A)
CO[C@@H]1C[C@H](C[C@@H](C)[C@@H]2CC(=O)[C@H](C)/C=C(\C)[C@@H](O)[C@@H](OC)C(=O)[C@H](C)C[C@H](C)/C=C/C=C/C=C(\C)C(OCC3CCOCC3)C[C@@H]3CC[C@@H](C)[C@@](O)(O3)C(=O)C(=O)N3CCCC[C@H]3C(=O)O2)CC[C@H]1OCCCO (stereo partly drawn) |  | A (PIC50 for mTORC1 of >9.5 as A)
